This note sets out measurements from patent US20250197387A1, “BCL-XL DEGRADERS AND USES THEREOF” (Kymera Therapeutics, Inc., priority 2021, published 2025).

The chains behind the UniProt entries cited, without tags or fusion partners.
UniProt Q07817, whole entry: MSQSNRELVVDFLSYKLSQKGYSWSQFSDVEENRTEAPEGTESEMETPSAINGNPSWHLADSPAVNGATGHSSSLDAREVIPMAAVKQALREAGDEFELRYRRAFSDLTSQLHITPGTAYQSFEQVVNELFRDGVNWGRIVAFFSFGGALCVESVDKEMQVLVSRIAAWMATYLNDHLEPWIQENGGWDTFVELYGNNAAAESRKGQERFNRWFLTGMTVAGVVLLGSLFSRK

The target in test [1] is T1, BCL-XL (Homo sapiens, UniProt Q07817). As to the kind of experiment: BCL-XL degradation assay, western blot in MOLT-4 cells, 16 h. As for the experimental part:
Compounds treatment: compounds were reconstituted in DMSO to make a stock concentration of 10 mM. MOLT-4 cells were maintained in RPMI-1640+10% FBS+1% Penicillin-Streptomycin. Cells were seeded into 6-well plates in 2 mL at the seeding density of 2e6 cells/mL. Compounds were added to the cells to a final concentration ranging 0.02-10 μM. After 16 hr incubation at 37° C., in a CO2 incubator, cells were collected in an Eppendorf tube and centrifuged at 200×g for 5 minutes, the supernatant removed and pellets washed with ice-cold PBS, centrifuged and supernatant removed again. Then. 50 μl of pre-chilled RIPA lysis buffer (Boston BioProducts. BP-115D) with protease and phosphatase inhibitors (Roche Applied Science. #04906837001 and #04693116001) was added into cell pellet to lyze the cells for 20 minutes under 4° C. Cell lysates were spin at 13000 rpm for 10 minutes. Supernatants were collected and protein concentration was measured by BCA assay kit (Solarbio. PC0020-500) following the manufacturer's protocol. Samples' final protein concentration was adjusted to 3.75 μg/uL with the RIPA lysis buffer based on BCA assay results and 4× loading buffer (Invitrogen. NP0007) was added into the samples and samples were heated to 85° C., for 10 min and then let cool at RT. […] The western blot images were obtained using Odyssey Imaging System and quantified using Image Studio Lite Ver 5.2 software. […]

For test [2], the target named is T1, BCL-XL. As to the kind of experiment: Bcl-xL ELISA degradation in MOLT-4 cells, 6 h. To be noted: for DC50: read-out: Bcl-xL ELISA in MOLT-4 degradation 6 h: Mean external-Abs DC50. On the procedure:
The letter codes for BCL-XL DC50 include: A (<0.01 μM); B (0.01-0.1 μM); C (>[…]); D (>0.5-1.0 μM); and E (>1.0 μM). The letter codes for Dmax % include A (>75%); B (50 to 75%); C (<50%).
Background: ELISA stands for enzyme-linked immunosorbent assay.

A further test deals with Caki-2 cells. As to the kind of experiment: CTG (CellTiter-Glo) cell viability assay, Caki-2. As to conditions: read-out: CTG Chempartner - Caki-2 3 day: Average external-IC50, 3 day incubation. As for the experimental part:
(§1) Compound-mediated viability effect on MOLT-4 and Caki-2 was quantitatively determined using the CellTiter-Glo® Luminescent Cell Viability Assay kit from Promega (Catalog number G7570) following manufacturer's recommended procedures. Briefly, MOLT-4 and Caki-2 cells were seeded into 384 well plates (Grenier Bio-One, Catalog number 781080) with a density of 10,000 cells per well. Compounds were then added to the assay plate with final top concentration of 10 μM and 1:3 dilution series with total of 9 doses. The final DMSO concentration is normalized to 0.2%. The assay plates were incubated at 37° C., for 3 days under 5% CO2. Then the assay plate was equilibrated at room temperature for 10 minutes. To determine cell viability, 30 uL CellTiter Glo reagent was added to each well and the assay plate was centrifuged at 1000 rpm for 30 second, incubated at room temperature for 10 min, and analyzed by detecting the luminescence using a multimode plate reader (EnVision 2105, PerkinElmer). The data was then analyzed by software Prism 7.0 from GraphPad and the dose response curves are fit using a three-parameter logistic equation to calculate IC50.
(§2) The letter codes for MOLT-4 IC50 include: A (<0.1 μM); B (0.1-1.0 μM); C (>1.0-3.0 μM); and D (>3.0 μM). The letter codes for Caki-2 IC50 include: A (<0.1 μM); B (0.1-1.0 μM); C (>1.0-10.0 μM); and D (>10.0 μM).
For orientation: In ATP-based viability assays light output follows the ATP content of the culture.

Another test has as its system MOLT-4 cells. The test is described as follows: CTG (CellTiter-Glo) cell viability assay, MOLT-4. As to conditions: read-out: CTG Cell Viability Assay - MOLT-4 3 day: Average external-IC50, 3 day incubation. On the procedure:
as §1, §2

Bounds are passed on as bounds.

As for `Cc1ncsc1-c1ccc([C@H](C)NC(=O)[C@@H]2C[C@@H](O)CN2C(=O)[C@@H](NC(=O)CCCN(C)C(=O)CCCCCCCC#Cc2ccc(N3CCc4cccc(C(=O)Nc5nc6ccccc6s5)c4C3)nc2C(=O)O)C(C)(C)C)cc1`, on BCL-XL [1], the “Bcl-xL WB in MOLT-4 degradation 16 h: Average Dmax %” value is listed as “C (C (<50%))”. At BCL-XL [1] (read-out: Bcl-xL WB in MOLT-4 degradation 16 h: Mean external-Abs DC50), the DC50 was over 1000 nM.
As to `Cc1ncsc1-c1ccc([C@H](C)NC(=O)[C@@H]2C[C@@H](O)CN2C(=O)[C@@H](NC(=O)C2CCN(c3ccc(S(=O)(=O)NC(=O)c4nc(N5CCc6cccc(C(=O)Nc7nc8ccccc8s7)c6C5)ccc4-c4cnn(CC(C)(C)C)c4C)cc3)CC2)C(C)(C)C)cc1`, the “Bcl-xL ELISA in MOLT-4 degradation 6 h: Average Dmax %” value on BCL-XL [2] is recorded as “A (A (>75%))”. Also, the DC50 at BCL-XL [2] lay in the range of 10 to 100 nM. The IC50 with Caki-2 cells is over 10 µM; in the test with MOLT-4 cells, under 100 nM.
Regarding `COc1nn(C)c2ccc(C(C)NC(=O)[C@@H]3C[C@@H](O)CN3C(=O)[C@@H](NC(=O)CCCCCS(=O)(=O)NC(=O)c3nc(N(C)c4cc(C)c(Nc5nc6ccccc6s5)nn4)ccc3-c3cnn(CC45CC6CC(CC(C6)C4)C5)c3C)C(C)(C)C)cc12` (stereo partly shown), on BCL-XL [2], the “Bcl-xL ELISA in MOLT-4 degradation 6 h: Average Dmax %” value is given as “A (A (>75%))” and the half-maximal degradation concentration (DC50) is under 10 nM. Moreover, in the test on Caki-2 cells, the IC50 is over 10 µM. For the same molecule, the IC50 in the test on MOLT-4 cells is under 100 nM.

By DC50 is commonly meant the concentration giving 50% degradation. As a reminder, the IC50 is the concentration that gives 50% inhibition.
